# Reference: patent US7241611B2, “Methods for synthesis of holo-photoactive yellow protein” (Universiteit Gent, priority 2002, dated 2007)
# Experiments:
# [1] = tested on: N[C@@H](Cc1ccc(O)cc1)C(=O)O; test: purified protein, by the assay type; details: other: substrate at its pH optimum (pH 8.5 TAL, pH 9.4 PAL), 35° C., mean of six independent measurements
# N[C@@H](Cc1ccccc1)C(=O)O = test: purified protein, by the assay type; details: other: substrate at its pH optimum (pH 8.5 TAL, pH 9.4 PAL), 35° C., mean of six independent measurements
substance,measurement,setting,value
tyrosine ammonia lyase (TAL) from Rhodobacter capsulatus (Rhodobacter capsulatus SB 1003),Km,[1],15.6 µM
same,kcat,[1],27.7 s⁻¹
same,kcat/Km,[1],1.77e+06 M⁻¹ s⁻¹
same,Km,N[C@@H](Cc1ccccc1)C(=O)O,1277 µM
same,kcat,N[C@@H](Cc1ccccc1)C(=O)O,15.1 s⁻¹
same,kcat/Km,N[C@@H](Cc1ccccc1)C(=O)O,11800 M⁻¹ s⁻¹
